The text below walks through data of patent US12441754B2, “Galactoside inhibitor of galectins” (GALECTO BIOTECH AB, priority 2019, dated 2025).

Chains of the proteins cited; added tags and fusions are not shown.
UniProt P17931, whole entry: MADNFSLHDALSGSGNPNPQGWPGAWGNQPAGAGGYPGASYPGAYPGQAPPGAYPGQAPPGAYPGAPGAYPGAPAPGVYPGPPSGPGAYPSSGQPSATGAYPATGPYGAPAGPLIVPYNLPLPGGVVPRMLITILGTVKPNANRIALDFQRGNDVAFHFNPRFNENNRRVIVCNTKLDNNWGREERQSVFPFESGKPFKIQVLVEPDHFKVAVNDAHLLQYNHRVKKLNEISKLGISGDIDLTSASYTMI
UniProt P09382, whole entry: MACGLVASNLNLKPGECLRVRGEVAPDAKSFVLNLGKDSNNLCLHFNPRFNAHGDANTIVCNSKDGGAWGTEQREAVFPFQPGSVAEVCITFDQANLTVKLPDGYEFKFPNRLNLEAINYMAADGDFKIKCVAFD

The target in one assay is Galectin-3 (Homo sapiens, UniProt P17931). Description: fluorescence anisotropy assay, compound as inhibitor of galectin / fluorescein tagged saccharide probe interaction. It is filed as binding. As to the method:
(§1) The affinity of Example 1-103 for galectins were determined by a fluorescence anisotropy assay where the compound was used as an inhibitor of the interaction between galectin and a fluorescein tagged saccharide probe as described Sörme, P., Kahl-Knutsson, B., Huflejt, M., Nilsson, U. J., and Leffler H. (2004) Fluorescence polarization as an analytical tool to evaluate galectin-ligand interactions. Anal. Biochem. 334: 36-47, (Sörme et al., 2004) and Monovalent interactions of Galectin-1 By Salomonsson, Emma; Larumbe, Amaia; Tejler, Johan; Tullberg, Erik; Rydberg, Hanna; Sundin, Anders; Khabut, Areej; Frejd, Torbjorn; Lobsanov, Yuri D.; Rini, James M.; et al, From Biochemistry (2010), 49(44), 9518-9532, (Salomonsson et al., 2010).

The target of another assay is Galectin-1 (Homo sapiens, UniProt P09382). The assay is described as above. The class given is binding. As to the method: as §1

In the case of `Nc1nc(-c2cn([C@@H]3[C@@H](O)[C@@H](Sc4cc(Cl)c(F)c(Cl)c4)O[C@H](CO)[C@@H]3O)nn2)cs1` [Example 32, 3,5-Dichloro-4-fluorophenyl 3-[4-(2-aminothiazol-4-yl)-1H-1,2,3-triazol-1-yl]-3-deoxy-1-thio-α-D-galactopyranoside], the Kd on Galectin-3 was 5 µM; at Galectin-1 it was 0.15 µM.
